Values quoted from earlier work as cited in patent US11607432B2, “Probiotic compositions containing clostridiales for inhibiting inflammation” (Evelo Biosciences, Inc., priority 2014, dated 2023).

Conditions: Table 1; NIAID priority pathogen category, OP or N; cited from earlier work

Question: Which “Pathogen Status” value does the source give for Clostridium symbiosum here?
Answer: N

Question: For Parabacteroides distasonis, which “Pathogen Status” value is on record?
Answer: N

Question: Which “Pathogen Status” value does the source give for Clostridium bolteae here?
Answer: N

Question: For Clostridium clostridioforme, which “Pathogen Status” value is on record?
Answer: N

Question: For Clostridium bartlettii, which “Pathogen Status” value is on record?
Answer: N

Question: With Clostridium celatum as the substance, how does the “Pathogen Status” value read?
Answer: N
